Source: patent publication US20150011751A1, “NOVEL TRIAZINE DERIVATIVE” (CARNA BIOSCIENCES, INC., priority 2012, published 2015)

Tested on: intracellular BTK (pY223) in Ramos cells
Conditions: test compound 0.3 μM, 1 hour, IgM 10 μg/mL 10 minutes

Question: `CCn1cc(Nc2nc(N)nc(-c3cccc(N4CCc5cc(C6CC6)cc(F)c5C4=O)c3CO)n2)cn1` was tested. Which “BTK phosphorylation inhibitory activity” value did it give?
Answer: *** (70% or more)
